Source: PubChem BioAssay (National Center for Advancing Translational Sciences (NCATS))
A549 viability – kills or reduces viability of A549 cells in Nrf2 counter-screen | Potency, µM (doses to about 46 µM), usual class: inhibitors | hit rate 0.16% among 390,000 | A549 ARE-Fluc cells, CellTiter-Fluor viability, 18-24 h | AID 504648
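Cytotoxicity counterscreen: CellTiter-Fluor fluorescence was measured in A549 ARE_Fluc cells after 18-24 h of compound exposure in a concentration series. The subsequent BugLite luminescent read reports ARE-luciferase activity.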
miR-21 reporter – raises the signal of a miR-21 reporter | HeLa miR-21 FLuc reporter, luciferase, 48 h | Potency, µM (highest dose often 38.3 µM) | 340,000 tested, under 10 active | AID 2288; active = well fitted rising curve with a large enough effect; inconclusive = small, poorly fitted or top-dose-only effect; inactive = no such curve, though single readings can be large or run the other way;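 also: miR-21 action dims this reporter so a rising signal means less miR-21 action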
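Compounds were titrated across several concentrations (up to approximately 40 uM) and incubated 48 hours with HeLa miR-21-FLuc reporter cells (miR-21 target sequence downstream of FLuc, endogenous miR-21). Readout was firefly luciferase luminescence after lytic detection reagent.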
ClpP mod – qHTS Assay for Activators of ClpP; ATP-dependent Clp protease proteolytic subunit (Bacillus subtilis (strain 168)), P80244; purified B. subtilis ClpP, FRET peptide cleavage, 20 min; Potency, µM (doses to about 57.5 µM); hit rate 1.9% among 340,000; active means well fitted falling curve with a large enough effect; inconclusive means small, poorly fitted or top-dose-only effect; inactive means no such curve, though single readings can be large or run the other way; further: the source files actives as falling curves though it sought activators and does not explain the sign; nearly all actives have a fitted effect of over 65% in size
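ClpP 10 microg/mL final, pH 8 Tris/KCl buffer with BSA, glycerol, Tween-20; compound pinned in; FRET-FV substrate; RT 20 min; Ex320/Em430; ΔFRET vs ADEP 5.8 microM, DMSO, no enzyme.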
Nrf2 block – Nrf2 pathway inhibition; Potency, µM (series often up to 46 µM), actives largely listed as inhibitors; hit rate 2.1% among 360,000; AID 504444; A549 ARE-Fluc reporter, luciferase luminescence, 18-24 h; further: nearly all actives have a fitted effect of over 60% in size
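Nrf2 function is reported as luminescence of an ARE-controlled luciferase in A549 cells. Compounds were tested at several concentrations, and a CellTiter-Fluor read on the same wells flagged cytotoxicity.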
Nrf2 activator – activators of Nrf2 (ARE) signaling; AREc32 ARE-luciferase reporter (MCF7-derived line), luminescence, 24 h; Potency, µM (titrated, usually from 46.1 µM), most hits filed as activators; hit rate 0.31% among 410,000; further: nearly all actives have a fitted effect of over 65% in size
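Each well held 1000 AREc32 cells, which were incubated with compound for 24 hr at 37 deg C after overnight attachment, and ARE reporter activity was quantified by firefly luciferase luminescence.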
TCR activator – activates T cell receptor signaling. Potency, µM (top dose mostly 9.22 µM), actives largely listed as activators. AID 504894. primary human leukocytes, anti-CD3, IL-2 HTRF, 48 h. 330,000 tested, under 10 active
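Readout: HTRF IL-2, Eu-cryptate/d2 antibody pair, 320nm excitation, 665nm emission. Stimulus: a-CD3 beads, no co-stimulation. Cells: primary human leukocytes. Exposure: 48 hr with compound.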
Large screens that a line does not name were inactive; ! = not active in a repeat. Only some compounds are listed: those with a hit (about 3.7% of all), similar ones and a draw of the others. Unless noted, the call rests on the fitted dose curve; in most records, active means well fitted curve in the direction sought with a large enough effect; inconclusive means small, poorly fitted or top-dose-only effect, or another doubt; inactive means no such curve, though single readings can be large; an effect the other way counts as inactive or inconclusive.

COc1ccc(N(C(=O)c2cc3ccccc3oc2=O)C2C=CS(=O)(=O)C2)cc1 (configuration not stated)	Nrf2 activator 18µM (no result: ClpP mod)
Cn1nc(/C=C/c2ccccc2)ccc1=O	Nrf2 block inconclusive (no result: ClpP mod)
O=c1ccc(/C=C/c2ccccc2)nn1Cc1ccccc1	ClpP mod 28µM (no result: Nrf2 block)
CCOC(=O)Cn1nc(/C=C/c2ccc(C)cc2)ccc1=O	ClpP mod 32µM (no result: Nrf2 block)
CCOC(=O)Cn1nc(/C=C/c2ccccc2)ccc1=O	ClpP mod inconclusive (no result: Nrf2 block)
CCOC(=O)Cn1nc(/C=C/c2ccc(C(C)C)cc2)ccc1=O	ClpP mod 28µM (no result: Nrf2 block)
O=c1cc2nc(-c3ccccc3F)nc(SCc3ccc(Br)cc3)n2[nH]1	Nrf2 block inconclusive (no result: TCR activator)
COc1ccc(-c2cn3nc(N4CCCC(C(=O)NCc5ccccc5C)C4)sc3n2)cc1 (configuration not stated)	none (no result: TCR activator)
O=C1c2ccccc2C(=O)N1c1ccncc1	none (no result: miR-21 reporter, ClpP mod, Nrf2 activator, TCR activator)
COc1ccc(C(=O)N(C)Cc2ccccn2)cc1OC1CCN(C(C)C)CC1	ClpP mod 28µM
C(=NN1CCCCCC1)c1cccc2ccccc12	ClpP mod inconclusive, Nrf2 block inconclusive (no result: miR-21 reporter)
C(=NN1CCCCCC1)c1ccc2ccccc2n1	Nrf2 block 18µM (no result: miR-21 reporter, ClpP mod)
CC(=O)Nc1ccccc1OCc1cc(=O)n2c3c(sc2n1)CCCC3	none (no result: TCR activator)
Cc1sc(NC(=O)C2CSC3(C)CCC(=O)N23)nc1-c1ccc(F)cc1 (configuration not stated)	none
O=C1Nc2cc(C(=O)N3CCN(c4ccccn4)CC3)ccc2S/C1=C\c1ccccc1	Nrf2 block 23µM
CN1C(=O)/C(=C\c2ccccc2)Sc2ccc(C(=O)N3CCN(c4ccccn4)CC3)cc21	none (no result: A549 viability, ClpP mod, Nrf2 block, Nrf2 activator, TCR activator)
Cc1cccc(Cn2c(NC3CCCC3)nc3c2c(=O)[nH]c(=O)n3C)c1	none (no result: A549 viability, miR-21 reporter, Nrf2 block, TCR activator)
COc1ccc(-n2c(C)cc(C(=O)NC3CCCCC3)c2C)cc1	Nrf2 block inconclusive, Nrf2 activator 18µM (no result: TCR activator)
Cc1cccc(-n2c(C)cc(C(=O)NC3CCCCC3)c2C)c1	Nrf2 activator inconclusive
COc1ccc(NC(=O)CCCc2nc(-c3ccco3)no2)c(OC)c1	none (no result: TCR activator)
CCSc1nnc(SCC(=O)c2c(N)n(C)c(=O)n(C)c2=O)s1	Nrf2 block 21µM (no result: miR-21 reporter, ClpP mod)
CCC(C)c1ccc(S(=O)(=O)N2CCN(C(=O)COc3ccc4c(C)cc(=O)oc4c3)CC2)cc1 (configuration not stated)	ClpP mod inconclusive
Cc1cc(=O)oc2cc(OCC(=O)N3CCCC(C)C3)ccc12 (configuration not stated)	ClpP mod 32µM
COc1ccc(S(=O)(=O)N2CCN(C(=O)COc3ccc4c(C)cc(=O)oc4c3)CC2)cc1	ClpP mod 22µM
COc1ccc(C(=O)OCc2cc(=O)oc3cc(C)ccc23)cc1S(=O)(=O)N1CCOCC1	none (no result: A549 viability, miR-21 reporter, Nrf2 block, TCR activator)
COc1ccc2c(COC(=O)c3ccc(C)c(S(=O)(=O)N4CCOCC4)c3)cc(=O)oc2c1	ClpP mod 25µM (no result: miR-21 reporter)
O=C(N[C@H]1C/C=C\C[C@H](CC(=O)N(CCO)Cc2ccccc2)C(=O)N[C@H](Cc2c[nH]c3ccccc23)COC1=O)OCC1c2ccccc2-c2ccccc21	none (no result: miR-21 reporter)
Cc1cc(NC(=O)CSc2nc(N)c(NC(=O)c3ccccc3)c(=O)[nH]2)no1	none (no result: ClpP mod)
Cc1cc(NC(=O)CSc2nc(N)c(NC(=O)c3ccccc3F)c(=O)[nH]2)no1	ClpP mod 16µM
COc1ccc(NC(=O)COc2coc(CN3CCN(c4ccccc4)CC3)cc2=O)cc1	ClpP mod 28µM (no result: miR-21 reporter)
O=c1[nH][nH]c2cc([N+](=O)[O-])ccc12	none (no result: miR-21 reporter, ClpP mod)
COCCCNC(=O)C[C@H]1C[C@H](C(=O)N2CCOCC2)[C@@]2(C)c3[nH]c4cc(CCC(=O)N(C)C)ccc4c3CCN2C1=O	none (no result: miR-21 reporter)
Cc1cccc(C)c1NC(=S)NCCSc1ccc(Cl)cc1	A549 viability inconclusive, Nrf2 block 26µM (no result: ClpP mod)
Cn1c(-c2ccc3nc(N)sc3c2)nc2cc(N)ccc21	ClpP mod 10µM (no result: TCR activator)
C=CCn1c(-c2ccc(C)cc2)nc2ccccc21	ClpP mod 7.1µM, Nrf2 block inconclusive
Cn1c(-c2ccc(N)cc2)nc2ccccc21	ClpP mod 2.8µM!, Nrf2 block inconclusive
CC(C)(C)c1ccc(S(=O)(=O)N2CCNC(=O)C2)cc1	none (no result: miR-21 reporter, ClpP mod)
CCOC(=O)c1cnn(-c2nc(-c3ccc(C)cc3)cs2)c1C(F)(F)F	ClpP mod 32µM, Nrf2 block inconclusive (no result: A549 viability)
O=C(O)c1cnn(-c2nc(-c3ccc(F)cc3)cs2)c1C(F)(F)F	Nrf2 block inconclusive (no result: ClpP mod, TCR activator)
O=C(CN1CCOCC1)Nc1ccccc1Sc1ccc(Cl)cc1	Nrf2 block 29µM (no result: ClpP mod)
O=C(CN1CCCC1)Nc1ccccc1Sc1ccccc1	none (no result: ClpP mod)
CCN(CC)CCCNC(=O)CCC(=O)NNc1nc2ccccc2c2nc(C)nn12	none
CCCCN(C)C(=O)CCC(=O)NNc1nc2ccccc2c2nc(C)nn12	ClpP mod 25µM!
CCN(C(=O)CN1C(=O)S/C(=C\c2ccc(F)cc2)C1=O)C1CCS(=O)(=O)C1 (configuration not stated)	Nrf2 block inconclusive
O=C(c1ccccc1)[C@@H]1[C@@H]2C(=O)N(c3ccc(F)cc3)C(=O)[C@@H]2C2CCCN21 (some centres not stated)	Nrf2 activator 10µM
Cc1ccc(N2C(=O)[C@@H]3[C@H](C2=O)C2CCCN2[C@@H]3C(=O)c2ccccc2)cc1 (some centres not stated)	Nrf2 activator inconclusive
CC(=O)c1ccc(N2CCN(Cc3cc(=O)n4c(-c5ccccc5)csc4n3)CC2)cc1	Nrf2 block inconclusive (no result: miR-21 reporter, ClpP mod)
O=c1cc(CN2CCN(c3ccccc3)CC2)nc2scc(-c3ccccc3)n12	Nrf2 block 15µM (no result: ClpP mod)
CCOC(=O)c1cc(C)n(Cc2cccc(OC)c2OC)c1C	Nrf2 block 23µM
CCOC(=O)c1c(C)c(C)n(Cc2cccc(OC)c2OC)c1C	Nrf2 block inconclusive (no result: TCR activator)
COc1cccc(Cn2nnc(C(=O)Nc3cc(C)ccc3C)c2N)c1	Nrf2 block 16µM (no result: TCR activator)
CCCCNC(=O)C1(C)CCN1Cc1cccc2c(OC)cc(C(=O)OCC)cc12 (configuration not stated)	none (no result: A549 viability, miR-21 reporter, Nrf2 block, TCR activator)
Cc1ccc(S(=O)(=O)N(CC(=O)Nc2ccc(Cl)c([N+](=O)[O-])c2)C2CCCCC2)cc1	miR-21 reporter inconclusive, ClpP mod 28µM, Nrf2 block inconclusive
Cc1ccc2c(Cl)c(C(=O)NC3CC3)sc2c1	Nrf2 block inconclusive
O=c1cc(-c2ccccc2Cl)oc2ccc([N+](=O)[O-])c(O)c12	A549 viability inconclusive, Nrf2 block inconclusive
